Where two headings read alike, the source gives them in different places.
Legend:
SNU-16 = experiment: Cell viability assay, SNU-16; assay type: cell-based, human; settings: read-out: IC50 cytotoxicity
Procedure: (§1) Cells were seeded into 96-well plates at 1500 cells/well for SK-BR-3, JIMT-1, and NCI-N87, 800 cells/well for HCC1954, 600 cells/well for AGS and MKN-45, 2500 cells/well for MDA-MB-468 and Capan-1, and 1000 cells/well for SNU-16. After overnight incubation, a serially diluted solution of compounds or ADCs was added. Cell viability was evaluated after 6 days using CellTiter-Glo reagent (Promega) according to the manufacturer’s instructions. Luminescence was measured by PHERAstar (BMG LABTECH).

[1] = test system: MDA-MB-468 cells co-cultured with SK-BR-3; experiment: Bystander killing effect in SK-BR-3 / MDA-MB-468 co-culture; assay type: cell-based, human; settings: co-culture with SK-BR-3; 3 days
[2] = PK of ADCs in mice, intraperitoneal vs. intravenous; assay type: in vivo
JIMT-1 xenograft = experiment: JIMT-1 mouse xenograft; assay type: in vivo, mice; settings: 10 mg/kg i.p. single dose (Fig 2B)
NCI-N87 xenograft = experiment: NCI-N87 mouse xenograft; assay type: in vivo, mice
Excerpt: (§2) Female NUNU nude mice, Beige SCID mice and Balb/c nude mice (15–18 g body weight, n = 385) were purchased from Beijing Vital River Laboratory Animal Technology Co., Ltd. In brief, NCI-N87 (5 × 10^6 cells/inoculation), JIMT-1 (4.5 × 10^6 cells/inoculation) and Capan-1 (3 × 10^6 cells/inoculation) were implanted subcutaneously into the hind flank region and allowed to grow to the appropriate size (150–250 mm^3 in average). Six to eight mice per treatment group were randomized according to the size of tumors. […] The ADCs were administered intraperitoneally at various dosages single time or every week for two weeks as described in the figure legend. Tumor volume and body weight were measured twice a week during the course of the study. […] Tumor volume of individual tumors at each time point was measured as V = 1/2 x Length x Width^2. Mice were examined daily for health condition and humane endpoint criteria. Animals were sacrificed in less than a day once criteria was reached. There were no unexpected animal deaths during the in vivo studies with 40–50-day duration. All of the mice were euthanized using inhaled carbon dioxide at the end of study or when the following humane endpoints were reached: tumor volume exceeding 2000 mm^3, body weight decreases by more than 20% of the initial weight, tumor ulceration, any sign of severe pain distress or infection.

[3] = cited from earlier work
[4] = GLP toxicology study in cynomolgus monkeys; assay type: in vivo; settings: 5 times
Procedure: (§3) GLP toxicology and toxicokinetics studies were outsourced to Shanghai InnoStar Bio-tech Co., Ltd. Studies were approved by InnoStar’s Institutional Animal Care and Use Committee and carried out in compliance with ARRIVE guidelines. Cynomolgus monkeys were housed in stainless steel cages at the study institution. The temperature and relative humidity of the room were recorded twice a day with ranged from 18 to 26°C and 40–70%, respectively. Ventilation was constantly operated with ≥ 8 times of air changes per hour. […] Monkey maintenance feed was purchased from qualified supplier with microorganisms, heavy metals and pesticide residues tested. During the study, all animals had ad libitum access to feed and clean deionized water except during specific fasting. […] All animals were acclimated to temperature and relative humidity-controlled environment for few days before randomization. Detailed clinical observation was performed on all cynomolgus monkeys once a day during the acclimation period. All of the animal care staff were trained to maximal reduce the pain of animals. Special training such as animal handling, proper injection for treatment/anesthesia, and painless death were taught to the staff.
(§4) Clinical signs, body weight, food consumption, and clinical pathology were monitored twice a day. […] Humane endpoint criteria were observed twice a day during study to examine health and behavior. Animals were sacrificed in less than a day once reached endpoint criteria. There were no unexpected animal deaths during the studies with 16-weeks duration. All of the animals were euthanized by intravenous injection of combination of zoletil and xylazine at the end of study for targeted organ and tissue examinations to evaluate toxicity or when the following humane endpoints were reached: severe injury, severe respiratory depression, severe weight loss, persistent anorexia, significant pain or stress, progressive pain leading to weakness, and persistent or continuous twitching. Final disposal of each animal was recorded on the study records.

[5] = Body weight in xenograft models; assay type: in vivo, mice; settings: NCI-N87, JIMT-1 and Capan-1 xenograft models
Excerpt: as §2

[6] = Toxicokinetics in cynomolgus monkeys; assay type: in vivo
Procedure: as §3, §4

Capan-1 = experiment: Cell viability assay, Capan-1; assay type: cell-based, human; settings: Capan-1, HER2 Low; 6 days, CellTiter-Glo; read-out: IC50 cytotoxicity
Procedure: as §1

[7] = 6.4 mg/kg; cited from earlier work
[8] = 5.4 mg/kg; cited from earlier work
[9] = 6.4 mg/kg, cited from earlier work
[10] = cynomolgus monkeys, once every 3 weeks for 3 doses; cited from earlier work
[11] = SNU-16, HER2 Low, 6 days, CellTiter-Glo

Question: Which IC50 (SNU-16; Homo sapiens, SNU-16, 144 h) does the source give for CC[C@@]1(O)C(=O)OCc2c1cc1n(c2=O)Cc2c-1nc1cc(F)c(C)c3c1c2[C@@H](NC(=O)[C@H](O)C1CC1)CC3 [SHR169265] here?
Answer: Its IC50 is 0.57 ± 0.19 nM.

Question: For SHR-A1811, which IC50 (SNU-16; [11]) is on record?
Answer: Its IC50 is 133 ± 22.3 nM.

Question: And the IC50 [1]?
Answer: Its IC50 is 0.23 ± 0.05 nM.

Question: And the “AUC 0-672” value ([2]; IP @ 3mpk)?
Answer: The value was 2037.9 ± 858.0 µg·h/mL.

Question: And the “AUC 0-672” value ([2]; IV @ 3mpk)?
Answer: The value was 2054.6 ± 207.8 µg·h/mL.

Question: What about the TGI (JIMT-1 xenograft) of the same compound?
Answer: Its TGI is 80.7%.

Question: And the TGI (NCI-N87 xenograft; 3 mg/kg i.p. single dose)?
Answer: Its TGI is 124%.

Question: And the ORR ([3]; HER2-expressing/mutant non-breast solid tumor patients)?
Answer: Its ORR is 45.9%.

Question: What about the ORR ([3]; HER2-positive breast cancer patients, 1 to 8.0 mg/kg i.v. every 3 weeks) of the same compound?
Answer: Its ORR is 76.3%.

Question: What about the ORR ([3]; HER2 low-expressing breast cancer patients, 1 to 8.0 mg/kg i.v. every 3 weeks) of the same compound?
Answer: Its ORR is 60.4%.

Question: What about the “AUCinf of free payload in plasma” value ([3]; patients, 6.4 mg/kg cohort, after multiple dosing) of the same compound?
Answer: The value was 26.7 µg·days/mL.

Question: And the “Body weight and food intake” value ([4]; 3 mg/kg i.v. every 3 weeks)?
Answer: The value was “Normal”.

Question: And the Cardiac function ([4]; 3 mg/kg i.v. every 3 weeks)?
Answer: Its Cardiac function is “Normal”.

Question: What about the “Clinical chemistry at day2” value ([4]; 3 mg/kg i.v. every 3 weeks) of the same compound?
Answer: Its value is “Normal”.

Question: What about the Clinical signs ([4]; 3 mg/kg i.v. every 3 weeks) of the same compound?
Answer: Its Clinical signs is “Normal”.

Question: What about the Hematology ([4]; 3 mg/kg i.v. every 3 weeks) of the same compound?
Answer: Its Hematology is “Normal”.

Question: What about the Mortality ([4]; 3 mg/kg i.v. every 3 weeks) of the same compound?
Answer: Its Mortality is “No report”.

Question: And the “Target organs and tissue” value ([4]; 3 mg/kg i.v. every 3 weeks)?
Answer: The value was “Normal”.

Question: And the “Body weight and food intake” value ([4]; 10 mg/kg i.v. every 3 weeks)?
Answer: The value was “Normal”.

Question: What about the Cardiac function ([4]; 10 mg/kg i.v. every 3 weeks) of the same compound?
Answer: Its Cardiac function is “Normal”.

Question: And the “Clinical chemistry at day2” value ([4]; 10 mg/kg i.v. every 3 weeks)?
Answer: Its value is “Normal”.

Question: What about the Clinical signs ([4]; 10 mg/kg i.v. every 3 weeks) of the same compound?
Answer: The Clinical signs was “Normal”.

Question: And the Hematology ([4]; 10 mg/kg i.v. every 3 weeks)?
Answer: The Hematology was “Normal”.

Question: And the Mortality ([4]; 10 mg/kg i.v. every 3 weeks)?
Answer: Its Mortality is “No report”.

Question: And the “Target organs and tissue” value ([4]; 10 mg/kg i.v. every 3 weeks)?
Answer: The value was “Normal”.

Question: What about the “Body weight and food intake” value ([4]; 40 mg/kg i.v. every 3 weeks) of the same compound?
Answer: Its value is “Normal”.

Question: What about the Cardiac function ([4]; 40 mg/kg i.v. every 3 weeks) of the same compound?
Answer: The Cardiac function was “Normal”.

Question: And the “Clinical chemistry at day2” value ([4]; 40 mg/kg i.v. every 3 weeks)?
Answer: The value was “Normal”.

Question: And the Clinical signs ([4]; 40 mg/kg i.v. every 3 weeks)?
Answer: The Clinical signs was “Normal”.

Question: And the Mortality ([4]; 40 mg/kg i.v. every 3 weeks)?
Answer: Its Mortality is “No report”.

Question: And the “effect on mouse body weight” value [5]?
Answer: Its value is “without effect”.

Question: What about the AUCt ([6]; analyte after SHR-A1811 40 mg/kg i.v. every 3 weeks, Multiple) of the same compound?
Answer: The AUCt was 3988273 ng·days/mL.

Question: And the AUCt ([6]; analyte after SHR-A1811 40 mg/kg i.v. every 3 weeks, multiple doses)?
Answer: The AUCt was 3.988e+06 ng·days/mL.

Question: What about the AUCt ([6]; analyte after SHR-A1811 40 mg/kg i.v., Single) of the same compound?
Answer: The AUCt was 3111089 ng·days/mL.

Question: What about the IC50 (Capan-1) of the same compound?
Answer: Its IC50 is 11.3 ± 2.7 nM.

Question: For T-DXd, which “discontinuation accounted for by ILD/pneumonitis” value [7] is on record?
Answer: The value was 6%.

Question: What about the dose interruption [7] of the same compound?
Answer: Its dose interruption is “up to 62%”.

Question: And the dose reduction rate [8]?
Answer: The dose reduction rate was 21%.

Question: And the “incidence of drug-related adverse events of grade 3 or 4” value [8]?
Answer: The value was 45.1%.

Question: What about the “treatment discontinuation accounted for by ILD/pneumonitis” value [8] of the same compound?
Answer: The value was 8%.

Question: What about the ILD incidence ([9]; breast cancer patients) of the same compound?
Answer: The ILD incidence was 21%.

Question: And the “AUC inf of free payload” value ([9]; patients)?
Answer: Its value is 34.2 µg·days/mL.

Question: And the HNSTD [10]?
Answer: The HNSTD was 30 mg/kg.

Question: Which IC50 (SNU-16; [11]) does the source give for “Trastuzumab: HER2 antibody produced with the published amino acid sequence [reference compound]” here?
Answer: The IC50 was > 500 nM.

Question: And the TGI (NCI-N87 xenograft; 6 mg/kg i.p. single dose)?
Answer: The TGI was 51%.

Question: What about the IC50 (Capan-1) of the same compound?
Answer: Its IC50 is > 500 nM.
